Consider 1 compound from publication PMC6858848 (Bioorganic & medicinal chemistry letters, 2019).

One series relates to 40 targets, mostly GPCRs. Particulars: 10 μM, NIMH PDSP.

Values after ≈ are worked out from the molar mass of the structure shown.

On to `O=C1c2ccccc2C(Cc2c(F)cncc2F)(Cc2c(F)cncc2F)c2ccccc21` [compound 6], for which, in the series “physchem”, the solubility (kinetic) stood at 30 µM (≈ 13.5 µg/mL). Further, the “Off-target activities: number of targets (of 40) with >30% binding” value in the series on 40 targets, mostly GPCRs came out at 2.
